Source: patent US9914740B2 (priority 2013, dated 2018)

The chains behind the UniProt entries cited, without tags or fusion partners.
UniProt O75116, whole entry, species assumed: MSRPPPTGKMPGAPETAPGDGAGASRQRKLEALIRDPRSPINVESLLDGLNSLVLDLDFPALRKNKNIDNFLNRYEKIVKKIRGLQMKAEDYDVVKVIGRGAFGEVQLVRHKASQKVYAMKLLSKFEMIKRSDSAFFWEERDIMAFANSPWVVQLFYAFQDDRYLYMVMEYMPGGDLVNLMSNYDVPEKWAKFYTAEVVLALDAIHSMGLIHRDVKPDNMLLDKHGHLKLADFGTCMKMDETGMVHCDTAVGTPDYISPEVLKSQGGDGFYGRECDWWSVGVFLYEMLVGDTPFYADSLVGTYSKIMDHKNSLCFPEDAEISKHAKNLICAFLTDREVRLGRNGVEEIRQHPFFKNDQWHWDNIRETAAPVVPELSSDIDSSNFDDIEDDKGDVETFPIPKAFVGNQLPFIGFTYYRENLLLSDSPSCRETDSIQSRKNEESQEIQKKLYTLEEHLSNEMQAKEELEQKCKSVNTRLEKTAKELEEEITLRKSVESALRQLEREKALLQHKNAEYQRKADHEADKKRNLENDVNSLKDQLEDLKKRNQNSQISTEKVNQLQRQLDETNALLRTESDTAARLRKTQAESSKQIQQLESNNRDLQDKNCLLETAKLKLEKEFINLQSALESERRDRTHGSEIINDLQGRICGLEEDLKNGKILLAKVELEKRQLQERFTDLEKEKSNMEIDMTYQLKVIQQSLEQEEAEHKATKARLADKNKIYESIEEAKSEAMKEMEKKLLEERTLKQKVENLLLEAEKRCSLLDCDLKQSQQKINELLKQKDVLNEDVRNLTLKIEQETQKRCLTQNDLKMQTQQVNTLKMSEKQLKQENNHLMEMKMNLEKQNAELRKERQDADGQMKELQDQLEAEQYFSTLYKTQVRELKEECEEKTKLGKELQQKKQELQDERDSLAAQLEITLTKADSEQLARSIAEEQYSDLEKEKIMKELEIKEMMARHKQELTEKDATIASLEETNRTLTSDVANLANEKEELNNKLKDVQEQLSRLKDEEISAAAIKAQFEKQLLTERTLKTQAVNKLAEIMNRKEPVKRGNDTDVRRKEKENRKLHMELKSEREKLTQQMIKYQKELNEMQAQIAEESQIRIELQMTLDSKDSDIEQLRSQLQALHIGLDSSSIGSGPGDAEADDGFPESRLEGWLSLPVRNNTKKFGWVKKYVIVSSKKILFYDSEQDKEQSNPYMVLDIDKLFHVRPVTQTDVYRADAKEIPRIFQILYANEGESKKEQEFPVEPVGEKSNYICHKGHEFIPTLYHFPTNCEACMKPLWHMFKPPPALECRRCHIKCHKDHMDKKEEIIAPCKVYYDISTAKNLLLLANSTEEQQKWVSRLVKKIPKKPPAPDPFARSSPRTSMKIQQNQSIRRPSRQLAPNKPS

Target: ROCK2 (Homo sapiens (Human), UniProt O75116)
Conditions: read-out: ROCK2 IC50

Row | Compound | IC50 [nM]
1 | C[C@@H](NC(=O)c1ccc2c(c1)c(=O)[nH]c1cnccc12)c1ccccc1 [XIII-5, 6-oxo-N-[(1R)-1-phenylethyl]-5H,6H-benzo[c] 1,7-naphthyridine-8-carboxamide] | 792
2 | Cn1c(=O)c2cc(C(=O)NCc3ccccc3Cl)ccc2c2ccncc21 [XIII-7, N-[(2-chloro-phenyl)methyl]-5-methyl-6-oxo-5H,6H-benzo[c] 1,7-naphthyridine-8-carboxamide] | 583
3 | CC(C)(C)OC(=O)N1CCn2c(-c3cccc(CNC(=O)c4ccc5c(c4)OCc4cnccc4-5)c3)cnc2C1 [IV-16, tert-butyl 3-(3-((5H-chromeno[3,4-c]pyridine-8-carboxamido)methyl)phenyl)-5,6-dihydroimidazo [1,2-a]pyrazine-7(8H)-carboxylate] | 371
